# Reference: patent US8518939B2, “6-pyrimidinyl-pyrimid-4-one derivative” (Mitsubishi Tanabe Pharma Corporation, priority 2007, dated 2013)
# Chains of the proteins cited; added tags and fusions are not shown.
# UniProt P10635, whole entry: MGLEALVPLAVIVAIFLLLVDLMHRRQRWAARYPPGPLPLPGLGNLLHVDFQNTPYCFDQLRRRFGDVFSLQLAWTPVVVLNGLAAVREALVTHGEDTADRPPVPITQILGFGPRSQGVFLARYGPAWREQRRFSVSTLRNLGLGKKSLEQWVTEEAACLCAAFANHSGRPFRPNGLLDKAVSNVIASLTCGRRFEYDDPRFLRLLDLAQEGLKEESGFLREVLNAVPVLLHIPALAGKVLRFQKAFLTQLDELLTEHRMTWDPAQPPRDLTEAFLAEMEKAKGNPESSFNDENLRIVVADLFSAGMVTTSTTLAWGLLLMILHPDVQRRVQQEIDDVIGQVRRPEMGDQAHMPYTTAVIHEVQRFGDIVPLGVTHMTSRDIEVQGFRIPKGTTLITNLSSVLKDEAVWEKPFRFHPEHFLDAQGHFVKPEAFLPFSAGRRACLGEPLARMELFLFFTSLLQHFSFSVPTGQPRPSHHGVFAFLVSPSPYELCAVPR
# Molecular target: CYP2D6 (Homo sapiens, UniProt P10635)
# Assay: Inhibitory activity on CYP2D6, human recombinant CYPs
row,SMILES,IC50
1,"Cn1c(N2CCOC(c3ccc(-c4ccoc4)cc3)C2)nc(-c2ccncn2)cc1=O (centres unmarked) [Compound 3, 2-[2-(4-Furan-3-yl-phenyl)-morpholin-4-yl]-1-methyl-1H-[4,4′]bipyrimidinyl-6-one]",2.3 µM
2,"Cn1c(N2CCOC(c3ccc(-n4cccn4)cc3)C2)nc(-c2ccncn2)cc1=O (centres unmarked) [Compound 5, 1-Methyl-2-[2-(4-pyrazol-1-yl-phenyl)-morpholin-4-yl]-1H-[4,4′]bipyrimidinyl-6-one]",1.9 µM
